scFv variants of Ab-14 (heavy chain) against a SARS-CoV-2 spike peptide

Antigen: PDVDLGDISGINAS, a 14-residue peptide of the SARS-CoV-2 spike HR2 region.

The variants keep the light chain, the linker and the frameworks of Ab-14 (scFv order VH, a 15-residue (Gly4Ser)3 linker, VL).
VH: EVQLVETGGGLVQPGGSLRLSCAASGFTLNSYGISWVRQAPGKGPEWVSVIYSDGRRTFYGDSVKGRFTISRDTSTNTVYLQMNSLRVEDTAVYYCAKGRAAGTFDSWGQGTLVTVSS
VL: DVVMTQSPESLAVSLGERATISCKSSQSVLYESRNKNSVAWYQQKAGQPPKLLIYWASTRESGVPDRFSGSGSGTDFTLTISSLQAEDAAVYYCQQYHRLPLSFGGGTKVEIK

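The parent was found by panning a naive human phage display library on the peptide. This is the validation round: designs drawn from the data on random variants, tested in the same kind of assay. Group labels follow the data file (Ctrl: baseline library sampled from a position-specific scoring matrix, with some repeated check sequences; Rand: our label for a block that the file lists under HC and that is probably the random mutants of the ten best first-round binders; GP: Gaussian process model; GPLM: also part of the Gaussian process libraries; HC: hill climbing; Gen: genetic algorithm; Gibbs: Gibbs sampling; a sequence that several methods proposed may carry one label only). The assay is AlphaSeq: two haploid yeast populations carry antibody and antigen on their surface. The frequency of each diploid, read from paired DNA barcodes, reflects how well the two displayed proteins bind. Read counts were normalised to the haploid input and turned into Kd by a linear fit to BCL2-family pairs of known affinity, for each replicate. Each pool was mated in six replicate cultures.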

Substitutions are numbered in sequence along the VH above, starting at 1 (not Kabat). Variants here have at most six changes. Values are apparent Kd, the geometric mean of the replicates that gave a signal; lower means stronger binding. An entry "no signal" has no value in the source: the pair was not observed among the diploids in any replicate. This suggests poor binding but is not conclusive. A sequence measured in both rounds can read differently, since the two assays cover different ranges.

changes,group,apparent Kd,replicates with signal,control signals
N30D/A101H,GPLM_HC,no signal,0/6,0/18
S31D/R56S/F59S/A102V/G103L/D106I,Rand,no signal,0/6,0/18
T28D/S31E/G61A/R100K,GPLM_Gen,2.5 nM,6/6,0/18
T28H/G61I/S63D/R100Q/S107H,Ctrl,17 nM,5/6,0/18
T28S/S31E/R100K/S107A,GPLM_Gen,890 pM,6/6,0/18
T28S/R100S/A101E/S107T,GP_Gen,290 pM,6/6,0/18
D62S/R100T/S107C,Ctrl,no signal,0/6,0/18
F27T/F59I/R100K/T104R,Ctrl,no signal,0/6,0/18
S35W/D106E,Ctrl,no signal,0/6,0/18
T28G/N30Q/R100G,Ctrl,no signal,0/6,0/18
S53A/R100Q/S107D,GPLM_Gen,6.0 nM,6/6,0/18
N30D/S53V/G55M/F105A/D106L,Rand,no signal,0/6,0/18
T28G/S31E/G61A/R100K,GP_Gen,460 pM,6/6,0/18
G103V/T104W,Ctrl,no signal,0/6,0/18
K65R/R100E,Ctrl,13 nM,6/6,1/18
S31D/Y60G/D106V,Ctrl,no signal,0/6,0/18
T28S/A101L/S107T,GP_Gen,2.6 nM,6/6,1/18
K65V/A101E,Ctrl,27 nM,6/6,0/18
S31D/T58V/G61I,GP_HC,49 nM,5/6,0/18
S53A/R100T/D106K/S107L,GP_HC,210 pM,6/6,0/18
T28G/S31E/R100W/A101T,GPLM_Gibbs,1.6 nM,6/6,0/18
F27H/R56M/G61V,Ctrl,10 nM,1/6,0/18
T28G/I51A/G61S/A102G/D106L,Rand,no signal,0/6,0/18
T28S/S31E/S63D/G103V/S107Q,GP_HC,no signal,0/6,0/18
G26R/G61A/A101P/D106C,Ctrl,no signal,0/6,0/18
G26Q,Ctrl,no signal,0/6,0/18
N30D/G61A/S63A/S107K,GP_Gibbs,13 nM,6/6,0/18
G26P/S31D/G61T/A101F,GP_HC,no signal,0/6,0/18
T28K/G61I/R100K,GPLM_Gen,1.8 nM,3/6,0/18
R56K/G61S/A102V,GP_HC,7.8 nM,5/6,0/18
T28N/G61V/R100H/A101V,GP_Gibbs,12 nM,6/6,0/18
R100E/T104G,Ctrl,10 nM,6/6,0/18
S53A/R100K,Ctrl+GPLM_Gen,2.5 nM,12/12,1/36
G26R/T28D/T104W/D106N,Rand,no signal,0/6,0/18
S31D/F59G/G61D/V64P/D106F,Ctrl,no signal,0/6,0/18
F27Y/S31E/G103V/S107Q,GP_HC,no signal,0/6,0/18
F59M/Y60M,Ctrl,no signal,0/6,0/18
D62Q/T104R/D106L,Ctrl,no signal,0/6,1/18
T28S/R56C/G61T/R100N,GP_Gibbs,5.8 nM,6/6,0/18
T28H/G61A/S63D/R100Q,GP_Gibbs,70 nM,6/6,0/18
S31E/A101F/S107M,GP_HC,74 nM,3/6,0/18
T28E/G61T/A101T,GPLM_Gen,6.5 nM,6/6,0/18
T28I/G61D/R100Q,GP_HC,57 nM,4/6,0/18
T28V/S31E/S53A/R100Q,GP_HC,390 pM,6/6,0/18
G26R/T28G/S31E/S63E/S107L,Ctrl,no signal,0/6,0/18
N30D/R56E/G61I/A102V,Ctrl,no signal,0/6,0/18
I51M/G61T/A101I/S107L,Ctrl,96 nM,4/6,0/18
T28D/T104F/D106W,GPLM_HC,no signal,0/6,0/18
L29V/T104Q,Ctrl,no signal,0/6,0/18
L29I/G61N/R100N/A101I/F105M,Ctrl,20 nM,6/6,0/18
G61K/R100K/A101L,GPLM_HC,67 nM,5/6,0/18
G26M/G61S/R100E,GPLM_Gen,no signal,0/6,0/18
R56H/G61D/R100Q/A101E,GPLM_HC,550 pM,4/6,0/18
T28D/G61H/A101H,GP_Gen,4.8 nM,5/6,0/18
N30D/G61A/S63P/S107K,GP_Gibbs,10 nM,6/6,1/18
S31D/R100S/A101L,Ctrl,3.4 nM,6/6,2/18
T28N/G61M/A101V,Ctrl,18 nM,2/6,0/18
T28M/N30D/A101L/A102S/F105A,Ctrl,no signal,0/6,0/18
T28D/G61T/A101W,GP_Gibbs,1.1 nM,6/6,0/18

A selection of 10 entries from above:

changes	group	apparent Kd	replicates with signal	control signals
G26M/G61S/R100E	GPLM_Gen	no signal	0/6	0/18
T28G/I51A/G61S/A102G/D106L	Rand	no signal	0/6	0/18
T28G/S31E/G61A/R100K	GP_Gen	460 pM	6/6	0/18
S31E/A101F/S107M	GP_HC	74 nM	3/6	0/18
L29V/T104Q	Ctrl	no signal	0/6	0/18
K65R/R100E	Ctrl	13 nM	6/6	1/18
I51M/G61T/A101I/S107L	Ctrl	96 nM	4/6	0/18
S31D/R56S/F59S/A102V/G103L/D106I	Rand	no signal	0/6	0/18
R100E/T104G	Ctrl	10 nM	6/6	0/18
L29I/G61N/R100N/A101I/F105M	Ctrl	20 nM	6/6	0/18

The parent sequence was in this pool as ten entries: three were never detected, three once, and four in most replicates, with averages from 2.2 nM to 240 nM. Background: pairings of all heavy chain designs with three empty control strains gave a value in 1% of cases (median 120 nM, 5th percentile 7.0 nM). Values in that range, when seen in few replicates, are hard to tell from nonspecific mating. The control count says in how many pairings with the empty strains this scFv gave a signal. The authors averaged sequences with at least three values out of six and counted those with two or fewer as poor binders. Some sequences occur more than once in the pool; their replicates are pooled.

Values reported by Li et al. 2023, doi:10.1038/s41467-023-39022-2 (FLAb copy).